Values of other authors in PMC3565575 (Bioorganic & medicinal chemistry, 2010).

Chains of the proteins cited; added tags and fusions are not shown.
UniProt Q60492, whole entry: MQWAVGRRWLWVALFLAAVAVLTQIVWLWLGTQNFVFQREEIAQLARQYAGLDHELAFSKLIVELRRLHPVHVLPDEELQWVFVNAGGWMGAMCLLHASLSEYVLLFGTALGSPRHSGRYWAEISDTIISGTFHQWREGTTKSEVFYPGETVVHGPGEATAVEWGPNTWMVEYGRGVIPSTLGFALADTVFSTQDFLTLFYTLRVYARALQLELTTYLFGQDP

Target: sigma-1 receptor (Cavia porcellus, UniProt Q60492)
Details: read-out: Ki, sigma-1 receptor, cited from earlier work

With `CC(Cc1ccc(C(C)(C)C)cc1)CN1C[C@@H](C)O[C@@H](C)C1` (stereo partly drawn) [fenpropimorph] as the compound, how does the Ki (guinea pig cerebral sigma-1 receptor) read?
The Ki was 0.005 nM.

What about the Ki (guinea pig hepatic sigma-1 receptor) of the same compound?
The Ki was 0.011 nM.

And the Ki (yeast-expressed sigma-1 receptor)?
The Ki was 0.08 nM.

Where two headings read alike, the source gives them in different places.
